# Measurements as given in US20070074295A1 (priority 2000, published 2007).
# Tested on: CIRL-1 (calcium independent alpha-latrotoxin receptor)
# Assay: Rat Atlas Array, prefrontal cortex, chronic PCP model
structure (smiles),measurement,setting,value
"c1ccc(C2(N3CCCCC3)CCCCC2)cc1 [PCP, phencyclidine]",E3C (CIRL) expression change (Atlas Array),"after PCP treatment regime, first experiment",increase
same,CIRL-1 expression (Atlas Array),"chronic PCP, second experiment",9145 ± 669 relative optical densities
